Measured values published in US5340833A, “Urokinase inhibitors” (Eisai Co., Ltd., priority 1992, dated 1994).

Assays:
[1] = tested on: tumor metastasis; details: Kellen et al. 1988; cited from earlier work
[2] = tested on: angiogenesis/capillary network formation; details: Alliegro et al. 1991; cited from earlier work
[3] = tested on: LL/2-M1 cells (subline of LL/2 Lewis lung carcinoma cells); assay: LL/2-M1 subcutaneous tumor growth in C57BL/6 mice; format: in vivo

Structure (SMILES) | tumor metastasis in vivo [1] | angiogenesis/capillary network formation in vitro [2] | subcutaneous LL/2-M1 tumor growth ([3]; 0.5 mg/ml in drinking water plus 30 mg/kg i.p. daily Monday-Friday, FIG. 5) | Differences in lung metastasis number versus control ([3]; Table 6) | Mean lung mets/mouse ([3]; Table 6, lungs after euthanasia, day 21) | mice that had developed measurable s.c. tumors ([3]; by day 13)
N=C(N)NC(=O)c1nc(Cl)c(N)nc1N [amiloride] | inhibit | inhibit | – | – | – | –
Cl.N=C(N)c1cc2c(I)cccc2s1 [Compound 5, 4-Iodobenzo[b]thiophene-2-carboxamidine hydrochloride] | – | – | inhibited | not statistically significant | 17.5 mets/mouse | 95%
